# Laboratory results from ChEMBL document CHEMBL2331145, “Orvinols with mixed kappa/mu opioid receptor agonist activity” (2013).
# Protein sequences, listed by entry. Tags and fused reporters are not part of them.
# UniProt P97266, whole entry, looked up: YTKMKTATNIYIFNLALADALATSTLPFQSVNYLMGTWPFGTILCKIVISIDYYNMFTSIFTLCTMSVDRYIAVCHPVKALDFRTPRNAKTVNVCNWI
# Target: Mu-type opioid receptor (Cavia porcellus, UniProt P97266)
# Assay: Displacement of [3H]DAMGO from MOR in Hartley guinea pig membrane
compound,measurement,value
CO[C@@]12CC[C@@]3(C[C@@H]1[C@](C)(O)C(C)(C)C)[C@H]1Cc4ccc(O)c5c4[C@@]3(CCN1CC1CC1)[C@H]2O5,Ki,0.4 nM
